In article PMC4203401 (Journal of Medicinal Chemistry, 2014):

Biological target: HIV-1 IN (rIN), strand transfer (Human immunodeficiency virus type 1 group M subtype B, UniProt P04585)
Assay: HIV-1 IN gel-based assay, strand transfer
Format: biochemical
Settings: IC50 for strand transfer

CC(=O)N1CCN(c2ccc3c(=O)c(C(=O)/C=C(\O)C(=O)O)cn(Cc4ccc(F)cc4)c3c2)CC1 [Compound 12d, 4-[1-[(4-Fluorophenyl)methyl]-7-(N-acetylpiperazin-1-yl)-4-(1H)-quinolinon-3-yl]-2-hydroxy-4-oxo-2-butenoic Acid]
IC50: < 100 nM
